Sequences of proteins named here, by UniProt entry; tags and fusion partners are left off. Residues count along the entry.
UniProt P02769, 25-607: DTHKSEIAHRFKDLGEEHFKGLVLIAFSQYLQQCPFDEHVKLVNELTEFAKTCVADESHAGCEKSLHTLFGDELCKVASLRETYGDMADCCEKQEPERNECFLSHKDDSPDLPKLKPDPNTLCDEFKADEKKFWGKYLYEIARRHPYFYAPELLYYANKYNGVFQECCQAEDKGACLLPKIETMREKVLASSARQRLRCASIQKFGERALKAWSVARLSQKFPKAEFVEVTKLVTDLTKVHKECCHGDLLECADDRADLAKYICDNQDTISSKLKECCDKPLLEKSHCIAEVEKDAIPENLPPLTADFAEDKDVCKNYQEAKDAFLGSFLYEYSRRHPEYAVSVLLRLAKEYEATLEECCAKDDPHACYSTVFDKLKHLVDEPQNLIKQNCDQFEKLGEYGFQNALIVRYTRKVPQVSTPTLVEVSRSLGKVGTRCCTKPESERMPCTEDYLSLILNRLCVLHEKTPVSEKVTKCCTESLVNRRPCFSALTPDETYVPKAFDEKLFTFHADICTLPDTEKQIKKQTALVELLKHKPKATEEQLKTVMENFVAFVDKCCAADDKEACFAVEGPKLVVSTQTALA

In article PMC4556714, “Drug Development in Conformational Diseases: A Novel Family of Chemical Chaperones that Bind and Stabilise Several Polymorphic Amyloid Structures” (PLoS ONE, 2015):

Target: T1, Bovine serum albumin (BSA, fraction V) (Bos taurus, UniProt P02769)
T1 construct: gene ALB; mature native serum albumin, 585 residues, fraction V from Roche; heat/acid-induced amyloid aggregation
Experiment: ThT fluorescence, inhibition of BSA amyloid aggregation
Type: biochemical
Conditions: BSA 300 μmol/L, 42°C per IC50 methods (65°C in kinetic assay), glycine buffer pH 3, NaCl 100 mM

**Q.** “(2R)-2-(6-methoxy-2-naphthyl)propanoic acid” was tested. Which IC50 did it give?
**A.** 9.21 µM
